# Source: patent US20060171935A1, “Protecting cell therapy for neurological disorders including Parkinson's disease” (priority 2005, published 2006)
# Key:
# αSyn [1] = biological target: T1, αSyn (Homo sapiens, UniProt P37840); assay: αSyn protofibril formation in vitro; assay type: biochemical; settings: molar ratio 1:2 (DJ-1: αSyn), 2 h at 55° C.
# Description: The analysis of DJ-1 chaperone function to a candidate DJ-1 substrate, αSyn (FIG. 23) was extended. The aggregation of αSyn has been implicated in familial and sporadic forms of PD, as mutations associated with autosomal dominant familial primary Parkinsonism alter the propensity of αSyn to aggregate (Conway et al. 2000a), and as αSyn fibrils are a major constituent of the Lewy body intracytoplasmic inclusions that typify PD pathology (Spillantini et al. 1997). In vitro, monomeric αSyn is disordered or “natively unfolded” in dilute solution (Weinreb et al. 1996). Incubation of purified WT human αSyn for 2 h at 55° C. results in the generation of high molecular weight multimers that likely represent protofibrils (FIGS. 23A and 23B) (Volles et al. 2001; Gosavi et al. 2002).
# αSyn protofibril and fibril formation assays were performed essentially as described (Uversky et al.). […] Samples were mixed with SDS loading buffer and analyzed by SDS-PAGE and Western blotting using αSyn LB509 antibody (Zymed). Quantitation of high molecular weight αSyn was performed using NIH Image J. Integrated pixel intensity of high molecular weight synuclein for each sample was normalized to monomeric synuclein intensity. […] Fibril formation was assessed by Congo red (Conway et al. 2000b).
# αSyn [2] = biological target: T1, αSyn; assay: αSyn Congo red-positive fibril formation in vitro; assay type: biochemical; settings: 200 μM αSyn, proteins 100 μM, 1 wk at 37° C.
# Method: Because DJ-1 chaperone activity is effective at inhibiting the accumulation of αSyn protofibrils, the inventors sought to investigate the role of this activity in the generation of Congo red-positive mature fibrils. […] Thus, DJ-1 seems to inhibit formation of αSyn fibrils by preventing formation of αSyn high molecular weight oligomers, or protofibrils.
# αSyn protofibril and fibril formation assays were performed essentially as described (Uversky et al.). Briefly, protofibrils were formed by incubation of 200 μM WT synuclein with 100 μM DJ-1 or control chaperone protein in PBS for 2 h at 55° C. Samples were mixed with SDS loading buffer and analyzed by SDS-PAGE and Western blotting using αSyn LB509 antibody (Zymed). Quantitation of high molecular weight αSyn was performed using NIH Image J. Integrated pixel intensity of high molecular weight synuclein for each sample was normalized to monomeric synuclein intensity. For fibril formation, αSyn and chaperone proteins (as described above) were incubated with shaking for 1 wk at 37° C. Fibril formation was assessed by Congo red (Conway et al. 2000b).
molecule,measurement,setting,value
"L166P DJ-1: Parkinsonism-associated L166P mutant of human DJ-1, recombinant or plasmid-expressed (protein, UniProt Q99497 1-189, looked up, variant L166P) MASKRALVILAKGAEEMETVIPVDVMRRAGIKVTVAGLAGKDPVQCSRDVVICPDASLEDAKKEGPYDVVVLPGGNLGAQNLSESAAVKEILKEQENRKGLIAAICAGPTALLAHEIGFGSKVTTHPLAKDKMMNGGHYTYSENRVEKDGLILTSRGPGTSFEFAPAIVEALNGKEVAAQVKAPLVLKD",formation of soluble αSyn protofibrils,αSyn [1],failed to inhibit
same,formation of Congo red-positive αSyn fibrils,αSyn [2],did not
